Key:
[1] = tested on: DPP8/9 over-expressing cells; conditions: Huan et al. 2015; cited from earlier work
[2] = tested on: mCXCL10; conditions: CpG-A intravenously, sitagliptin vs control
Method: Plates were washed twice with 300 μL of PBS. Blocking was done with BSA 1% (proteinase free, Gibco), in PBS for 2h at room temperature. Plates were washed 3 times with 300 μL of 0.05% Tween-20 in PBS. Tumor and plasma samples were diluted in BSA 1% and incubated for 2h, at room temperature. To obtain a standard curve, and to control for the cross-reactivity of the detection antibody, dilutions of recombinant mCXCL10 (Peprotech) or DPP4-digested mCXCL10(3-77) were incubated in parallel. For detection of mCXCL10(1-77), biotinylated α-mCXCL10(1-77) (AbDSerotec, 0.5 μg/ml, clone AbD17185.1), Streptavidin-HRP (BD Biosciences) and 1-STEP ULTRA TMB (Thermo Scientific) were used.
Enzymatic reactions were stopped with HCL 1N and plates were read with 450 nm in a Lab-systems […] MS (Thermo) reader. […] Detection of mDPP4, mCCL22 and mCXCL12 was done with the DUOSET® ELISA kit (R&D). Detection of mVEGF, mCCL2 and mCCL3 was done with a multiplex kit (Invitrogen).

Row | Structure (SMILES) | selectivity for DPP4 over DPP8 and 9 [1] | plasma mCXCL10(1-77) in Dpp4-/- mice [2]
1 | Cn1c(=O)cc(N2CCC[C@@H](N)C2)n(Cc2ccccc2C#N)c1=O [alogliptin] | highly-selective inhibitors of DPP4 | 
2 | N[C@@H](CC(=O)N1CCn2c(nnc2C(F)(F)F)C1)Cc1cc(F)c(F)cc1F [sitagliptin] |  | did not have an additive effect
3 | N#C[C@@H]1CCCN1C(=O)CNC12CC3CC(CC(O)(C3)C1)C2 [vildagliptin] | highly-selective inhibitors of DPP4 | 
